Laboratory results: PMC4980677

B1: SAMHD1_(115-626) WT (HD domain construct of human SAMHD1) [human] / itself (parent)
chain: MKVINDPIHGHIELHPLLVRIIDTPQFQRLRYIKQLGGGYYVFPGASHNRFEHSLGVGYLAGCLVHALGEKQPELQISERDVLCVQIAGLCHDLGHGPFSHMFDGRFIPLARPEVKWTHEQGSVMMFEHLINSNGIKPVMEQYGLIPEEDICFIKEQIVGPLESPVEDSLWPYKGRPENKSFLYEIVSNKRNGIDVDKWDYFARDCHHLGIQNNFDYKRFIKFARVCEVDNELRICARDKEVGNLYDMFHTRNSLHRRAYQHKVGNIIDTMITDAFLKADDYIEITGAGGKKYRISTAIDDMEAYTKLTDNIFLEILYSTDPKLKDAREILKQIEYRNLFKYVGETQPTGQIKIKREDYESLPKEVASAKPKVLLDVKLKAEDFIVDVINMDYGMQEKNPIDHVSFYCKTAPNRAIRITKNQVSQLLPEKFAEQLIRVYCKKVDRKSLYAARQYFVQWCADRNFTKPQDGDVIAPLITPQKKEWNDSTSVQNPTRLREASKSRVQLFKDDPM

Variants of: B1
Assay: sedimentation velocity analytical ultracentrifugation (van Holde-Weischet analysis), tetramer fraction against nucleotide concentration
Details: with itself, read off a plot
[1] = GTP titrated with dATP concentration held constant (concentration not given)
[2] = dATP titrated in the presence of 10 μM GTP

Row | EC50 [1] [µM] | EC50 [2] [µM] | Variant
1 | 20 | 15 | chain 1 D197A
2 | 9.5 | 28 | chain 1 D197A T478D
